# Source: patent US10905744B2, “Pharmaceutical formulations for the oral delivery of peptide drugs” (Cyprumed GmbH, priority 2015, dated 2021)
# Assay: Compatibility of absorption enhancers with trace elements: dissolution in aqueous medium, visual examination (Example 1)
# Assay type: physicochemical
# Method: Solid dry powder mixtures of desmopressin acetate, zinc sulfate or iron(III) chloride, and different absorption enhancers were prepared and dissolved in 2 ml aqua purificata.
substance,measurement,setting,value
Sucrose laurate,Dissolution in aqueous medium (2 ml),desmopressin acetate + FeCl3 5 mg/ml + absorption enhancer 10 mg/ml in 2 ml aqua purificata,Clear solution
same,Dissolution in aqueous medium (2 ml),desmopressin acetate + ZnSO4 5 mg/ml + absorption enhancer 10 mg/ml in 2 ml aqua purificata,Clear solution
